The text below walks through data of patent publication CN114763369A.

For orientation: EC50 means the concentration that produces a half-maximal response. Higher therefore signals lower potency in that assay.

Experiment [1] concerns the target TNF-α抗原(GenScript，产品目录No.Z01001) (human) (UniProt P01375). The experiment is described as follows: cell-based or functional assay.
The target is the same in experiment [2]. The experiment is described as follows: indirect ELISA, TNF-α coated at 1 μg/mL, detection with enzyme-labelled goat anti-human Fab.

Adalimumab((Fab)2-Fc) (antibody) had an IC50, 抑制TNF-α对L929细胞杀伤作用 (CCK-8) in experiment [1] of 0.648 nM.

In the case of “Adalimumab((Fab)2-Fc) (antibody; other documents disagree on this pair)”, the concentration giving a half-maximal response (EC50) in experiment [2] amounted to 0.515 nM.
